Measurements from EP4831169A1, “NOVEL COMPOUND USED AS CBP/P300 INHIBITOR, AND PHARMACEUTICAL COMPOSITION FOR PREVENTING OR TREATING CANCER, INFLAMMATORY DISORDERS, OR AUTOIMMUNE DISEASES COMPRISING SAME AS ACTIVE INGREDIENT” (dated 2026).

Amino acid sequences for entries named in this document (tags omitted). Residues count along the entry.
UniProt Q92793, 1085-1192 limits assumed: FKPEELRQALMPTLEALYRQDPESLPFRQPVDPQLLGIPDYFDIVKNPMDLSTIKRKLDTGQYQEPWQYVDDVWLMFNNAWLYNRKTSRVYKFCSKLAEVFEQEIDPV

Experiments:
BRD4 (BD1) protein = BRD4 (BD1) protein (Homo sapiens, UniProt O60885); experiment: BRD4 bromodomain TR-FRET inhibitory activity assay; conditions: read-out: BRD4 (BD1) IC50, Table 4
CBP BRD protein = CBP BRD protein (Homo sapiens, UniProt Q92793); experiment: CBP bromodomain TR-FRET inhibitory activity assay; conditions: read-out: CBP BRD IC50, Table 3

IC50 (BRD4 (BD1) protein) [nM] | IC50 (CBP BRD protein) [nM] | SMILES
> 5000 | < 500 | Cn1cc(-c2cc3nc(C(C)(C)C)n(-c4cc(NCC(C)(O)CO)c5c(c4)n(C)c(=O)n5C)c3cc2C(F)F)cn1 (stereo not drawn)
500 to 5000 | < 500 | Cn1cc(-c2cc3nc(-c4cncn4C)n(-c4cc(N5CC(O)C5)c5c(c4)n(C)c(=O)n5C)c3cc2F)cn1
> 5000 | < 500 | Cn1cc(-c2cc3nc(C(C)(C)C)n(-c4cc(N5CCOCC5)c5c(c4)n(C)c(=O)n5C)c3cc2/C=N/O)cn1
> 5000 | < 500 | CC(C)Nc1cc(-n2c(-c3cncn3C)nc3cc(-c4ccn(C)n4)c(F)cc32)cc2c1n(C)c(=O)n2C
> 5000 | 500 to 5000 | CC(C)Nc1cc(-n2c(C(C)(C)C)nc3cc(-c4ccnc(N)c4)c(F)cc32)cc2c1n(C)c(=O)n2C
500 to 5000 | < 500 | COC1(C)CN(c2cc(-n3c(-c4cncn4C)nc4cc(-c5cnn(C)c5)c(C(F)F)cc43)cc3c2n(C)c(=O)n3C)C1
> 5000 | < 500 | Cn1cc(-c2cc3nc(-c4cncn4C)n(-c4cc(-c5ccncc5)c5c(c4)n(C)c(=O)n5C)c3cc2F)cn1
> 5000 | < 500 | Cn1cc(-c2cc3nc(C(C)(C)C)n(-c4cc(N5CC(O)(C(F)(F)F)C5)c5c(c4)n(C)c(=O)n5C)c3cc2C(F)F)cn1
500 to 5000 | < 500 | Cc1ncc(-c2cc3nc(C(C)(C)C)n(-c4cc(N5CC(C)(O)C5)c5c(c4)n(C)c(=O)n5C)c3cc2C(F)F)s1
500 to 5000 | < 500 | CCCNc1cc(-n2c(-c3cncn3C)nc3cc(-c4cnn(C)c4)c(F)cc32)cc2c1n(C)c(=O)n2C
500 to 5000 | < 500 | Cn1cc(-c2cc3nc(-c4cncn4C)n(-c4cc(N5CC(C)(C)C5)c5c(c4)n(C)c(=O)n5C)c3cc2F)cn1
> 5000 | 500 to 5000 | Cc1ccc2c(-c3nc4cc(-c5cnn(C)c5)ncc4n3-c3ccc4c(c3)n(C)c(=O)n4C)c[nH]c2c1
> 5000 | > 5000 | CC(C)c1cc(-n2c(C(C)(C)c3ccccc3)nc3cc(-c4cnn(C)c4)c(F)cc32)cc2c1n(C)c(=O)n2C
500 to 5000 | < 500 | COC(=O)c1cc2c(cc1-c1cnn(C)c1)nc(C(C)(C)C)n2-c1cc(N2CCOCC2)c2c(c1)n(C)c(=O)n2C
> 5000 | < 500 | Cn1cc(-c2cc3nc(C(C)(C)C)n(-c4cc(N5CCOCC5)c5c(c4)n(C)c(=O)n5C)c3cc2Cl)cn1
> 5000 | < 500 | Cn1cc(-c2cc3nc(-c4cncn4C)n(-c4cc(C5CCOCC5)c5c(c4)n(C)c(=O)n5C)c3cc2F)cn1
> 5000 | < 500 | Cc1ncc(-c2cc3nc(C(C)(C)C)n(-c4cc(N5CCC(=O)CC5)c5c(c4)n(C)c(=O)n5C)c3cc2Cl)s1
> 5000 | < 500 | Cc1ncc(-c2cc3nc(C(C)(C)C)n(-c4cc(N5CCOCC5)c5c(c4)n(C)c(=O)n5C)c3cc2C(F)F)s1
> 5000 | < 500 | Cn1cc(-c2cc3nc(C(C)(C)C)n(-c4cc(NCC(C)(O)CO)c5c(c4)n(C)c(=O)n5C)c3cc2N)cn1 (stereo not drawn)
> 5000 | < 500 | CCn1cc(-c2cc3nc(C(C)(C)C)n(-c4cc(N5CCOCC5)c5c(c4)n(C)c(=O)n5C)c3cc2C(F)F)cn1
> 5000 | < 500 | CCn1cc(-c2cc3nc(C(C)(C)C)n(-c4cc(N5CC(C)(O)C5)c5c(c4)n(C)c(=O)n5C)c3cc2C(F)F)cn1
> 5000 | < 500 | CC(=O)Nc1ccc(-c2cc3nc(C(C)(C)C)n(-c4cc(N5CC(C)(O)C5)c5c(c4)n(C)c(=O)n5C)c3cc2C(F)F)cc1
500 to 5000 | < 500 | COc1cc2c(cc1-c1cnc(C)s1)nc(C(C)(C)C)n2-c1cc(N2CC(C)(O)C2)c2c(c1)n(C)c(=O)n2C

IC50 (BRD4 (BD1) protein) [nM] | IC50 (CBP BRD protein) [nM] | SMILES
500 to 5000 | < 500 | Cc1ccc2c(-c3nc4cc(-c5cnn(C)c5)c(C(C)(C)O)cc4n3-c3ccc4c(c3)n(C)c(=O)n4C)c[nH]c2c1
> 5000 | < 500 | CC(C)Nc1cc(-n2c(C(C)(C)C#N)nc3cc(-c4cnn(C)c4)c(F)cc32)cc2c1n(C)c(=O)n2C
> 5000 | < 500 | Cn1cc(-c2cc3nc(C(C)(C)C)n(-c4cc(NCC5(C)COC(=O)N5)c5c(c4)n(C)c(=O)n5C)c3cc2C(F)F)cn1 (stereo not drawn)
500 to 5000 | < 500 | COc1cc2c(cc1-c1cnn(C)c1)nc(-c1cncn1C)n2-c1cc(N2CCOCC2)c2c(c1)n(C)c(=O)n2C
> 5000 | < 500 | CC(=O)Nc1ccc(-c2cc3nc(-c4cncn4C)n(-c4cc(NC5CCCC5)c5c(c4)n(C)c(=O)n5C)c3cc2F)cc1
> 5000 | < 500 | Cn1cc(-c2cc3nc(C(C)(C)C)n(-c4cc(NC5CCCCC5)c5c(c4)n(C)c(=O)n5C)c3cc2F)cn1
500 to 5000 | 500 to 5000 | CNC(=O)c1cc2c(cc1-c1cnn(C)c1)nc(C(C)(C)C)n2-c1cc(N2CCOCC2)c2c(c1)n(C)c(=O)n2C
> 5000 | < 500 | Cn1cc(-c2cc3nc(C(C)(C)C)n(-c4cc(Oc5cc(Cl)ncn5)c5c(c4)n(C)c(=O)n5C)c3cc2C(F)F)cn1
> 5000 | < 500 | Cn1cc(-c2cc3nc(C(C)(C)C)n(-c4cc(N5CCSCC5)c5c(c4)n(C)c(=O)n5C)c3cc2C(F)F)cn1
> 5000 | < 500 | Cn1cc(-c2cc3nc(C(C)(C)C)n(-c4cc(N5CC(C)(O)C5)c5c(c4)n(C)c(=O)n5C)c3cc2N)cn1
> 5000 | < 500 | Cn1cc(-c2cc3nc(-c4cncn4C)n(-c4cc(OCC5CCOCC5)c5c(c4)n(C)c(=O)n5C)c3cc2F)cn1
> 5000 | < 500 | Cn1cc(-c2cc3nc(-c4cncn4C)n(-c4cc(N5CC(C)(NC(=O)OC(C)(C)C)C5)c5c(c4)n(C)c(=O)n5C)c3cc2C(F)F)cn1
500 to 5000 | < 500 | Cn1cc(-c2cc3nc(-c4cncn4C)n(-c4cc(N5CCC5)c5c(c4)n(C)c(=O)n5C)c3cc2F)cn1
> 5000 | < 500 | Cn1cc(-c2cc3nc(C(C)(C)C)n(-c4cc(OC5CCN(C(=O)OC(C)(C)C)CC5)c5c(c4)n(C)c(=O)n5C)c3cc2F)cn1
> 5000 | < 500 | CC(C)COc1cc(-n2c(-c3cncn3C)nc3cc(-c4cnn(C)c4)c(F)cc32)cc2c1n(C)c(=O)n2C
> 5000 | < 500 | Cc1nnc(-c2cc3nc(C(C)(C)C)n(-c4cc(N5CCOCC5)c5c(c4)n(C)c(=O)n5C)c3cc2F)o1
500 to 5000 | < 500 | Cn1cc(-c2cc3nc(-c4cncn4C)n(-c4cc(N5CCC(C)(O)CC5)c5c(c4)n(C)c(=O)n5C)c3cc2C(F)F)cn1
500 to 5000 | < 500 | COc1cc2c(cc1-c1cnn(C)c1)nc(C(C)(C)C)n2-c1cc(N2CC(C)(O)C2)c2c(c1)n(C)c(=O)n2C
500 to 5000 | < 500 | CC(=O)Nc1ccc(-c2cc3nc(-c4cncn4C)n(-c4cc(NCCN5CCOCC5)c5c(c4)n(C)c(=O)n5C)c3cc2F)cc1
> 5000 | 500 to 5000 | CC(C)c1cc(-n2c(C3(C)COC3)nc3cc(-c4cnn(C)c4)c(F)cc32)cc2c1n(C)c(=O)n2C
> 5000 | < 500 | Cn1c(=O)n(C)c2c(N3CC(C)(O)C3)cc(-n3c(C(C)(C)C)nc4cc(C5CC5)c(C(F)F)cc43)cc21
> 5000 | 500 to 5000 | Cn1cc(-c2cc3nc(-c4cncn4C)n(-c4cc(C5CCOCC5)c5c(c4)n(C)c(=O)n5C)c3cc2F)c(C(F)(F)F)n1
